{
  "sequences": {"note": "Amino acid sequences for entries named in this document (tags omitted).", "UniProt Q96LD8, whole entry": "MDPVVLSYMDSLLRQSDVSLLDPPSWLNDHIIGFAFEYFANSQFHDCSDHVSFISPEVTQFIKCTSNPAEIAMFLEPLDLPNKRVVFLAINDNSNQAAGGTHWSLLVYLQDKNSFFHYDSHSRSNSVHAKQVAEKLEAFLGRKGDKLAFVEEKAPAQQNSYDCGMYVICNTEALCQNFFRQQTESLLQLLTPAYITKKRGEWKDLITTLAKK"},
  "source": "PubChem BioAssay AID2540",
  "about": "(Sanford-Burnham Center for Chemical Genomics, 2010)",
  "note": "The entries are a selection whose mix differs from that of the whole data set. Calls of active or inactive are those of the source. Rule as the data show it: active = inhibition above about 50%; inactive = the rest.",
  "data": [
    {"biological_target": "Sentrin-specific protease 8 (Homo sapiens) (UniProt Q96LD8)", "assay": "SENP8 protease inhibitors, primary screen, biochemical, luminescence (AID 2540)", "settings": "purified SENP8, Z-RLRGG-aminoluciferin cleavage, at 10 µM, active compounds read high", "values": [
      {"smiles": "CCC(=O)N(c1ccccc1)C1(COC)CCN(CCn2nnn(CC)c2=O)CC1", "inhibition": "inactive: -3.5%"},
      {"smiles": "CCC(=O)N(c1ccccc1)C1(COC)CCN(CCc2cccs2)CC1", "inhibition": "inactive: -8.54%"}
    ]}
  ]
}
